According to IntAct's records for PubMed 20603015:

B1: Fanconi anemia group D2 protein (Homo sapiens), Q9BXW9 (parent)
chain: MVSKRRLSKSEDKESLTEDASKTRKQPLSKKTKKSHIANEVEENDSIFVKLLKISGIILKTGESQNQLAVDQIAFQKKLFQTLRRHPSYPKIIEEFVSGLESYIEDEDSFRNCLLSCERLQDEEASMGASYSKSLIKLLLGIDILQPAIIKTLFEKLPEYFFENKNSDEINIPRLIVSQLKWLDRVVDGKDLTTKIMQLISIAPENLQHDIITSLPEILGDSQHADVGKELSDLLIENTSLTVPILDVLSSLRLDPNFLLKVRQLVMDKLSSIRLEDLPVIIKFILHSVTAMDTLEVISELREKLDLQHCVLPSRLQASQVKLKSKGRASSSGNQESSGQSCIILLFDVIKSAIRYEKTISEAWIKAIENTASVSEHKVFDLVMLFIIYSTNTQTKKYIDRVLRNKIRSGCIQEQLLQSTFSVHYLVLKDMCSSILSLAQSLLHSLDQSIISFGSLLYKYAFKFFDTYCQQEVVGALVTHICSGNEAEVDTALDVLLELVVLNPSAMMMNAVFVKGILDYLDNISPQQIRKLFYVLSTLAFSKQNEASSHIQDDMHLVIRKQLSSTVFKYKLIGIIGAVTMAGIMAADRSESPSLTQERANLSDEQCTQVTSLLQLVHSCSEQSPQASALYYDEFANLIQHEKLDPKALEWVGHTICNDFQDAFVVDSCVVPEGDFPFPVKALYGLEEYDTQDGIAINLLPLLFSQDFAKDGGPVTSQESGQKLVSPLCLAPYFRLLRLCVERQHNGNLEEIDGLLDCPIFLTDLEPGEKLESMSAKERSFMCSLIFLTLNWFREIVNAFCQETSPEMKGKVLTRLKHIVELQIILEKYLAVTPDYVPPLGNFDVETLDITPHTVTAISAKIRKKGKIERKQKTDGSKTSSSDTLSEEKNSECDPTPSHRGQLNKEFTGKEEKTSLLLHNSHAFFRELDIEVFSILHCGLVTKFILDTEMHTEATEVVQLGPPELLFLLEDLSQKLESMLTPPIARRVPFLKNKGSRNIGFSHLQQRSAQEIVHCVFQLLTPMCNHLENIHNYFQCLAAENHGVVDGPGVKVQEYHIMSSCYQRLLQIFHGLFAWSGFSQPENQNLLYSALHVLSSRLKQGEHSQPLEELLSQSVHYLQNFHQSIPSFQCALYLIRLLMVILEKSTASAQNKEKIASLARQFLCRVWPSGDKEKSNISNDQLHALLCIYLEHTESILKAIEEIAGVGVPELINSPKDASSSTFPTLTRHTFVVFFRVMMAELEKTVKKIEPGTAADSQQIHEEKLLYWNMAVRDFSILINLIKVFDSHPVLHVCLKYGRLFVEAFLKQCMPLLDFSFRKHREDVLSLLETFQLDTRLLHHLCGHSKIHQDTRLTQHVPLLKKTLELLVCRVKAMLTLNNCREAFWLGNLKNRDLQGEEIKSQNSQESTADESEDDMSSQASKSKATEDGEEDEVSAGEKEQDSDESYDDSD

Variants of: B1
Conditions: with fscn1_human FSCN1

effect of a mutation on the interaction | Variant
decreasing interaction | K561R
